Source: patent publication US20070270455A1, “INHIBITION OF NF-kB” (priority 2005, published 2007)

Test system: RCC45
Experiment: Global gene expression profile by microarray hybridization, RCC45
Type: cell-based
Conditions: 16 hours

## Nc1c2ccccc2nc2ccccc12 [9AA, 9-aminoacridine]
9AA 2 μM
  Relative expression compared to untreated cells: Activating transcription factor 3: 0.91
  Relative expression compared to untreated cells: Amyloid beta (A4) precursor-like protein 2: 0.97
  Relative expression compared to untreated cells: Annexin A1: 1.13
  Relative expression compared to untreated cells: Apoptotic protease activating factor: 0.85
  Relative expression compared to untreated cells: BCL2 binding component 3 (PUMA): 0.78
  Relative expression compared to untreated cells: BTG family member 2: 0.9
  Relative expression compared to untreated cells: CD44 antigen (homing function and Indian blood group system): 1.32
  Relative expression compared to untreated cells: Carboxylesterase 2 (intestine, liver): 1.04
  Relative expression compared to untreated cells: Chemokine (C-C motif) ligand 2: 1.06
  Relative expression compared to untreated cells: Chemokine (C-C motif) ligand 20: 1.06
  Relative expression compared to untreated cells: Chemokine (C-X-C motif) ligand 1 (melanoma growth stimulating activity, alpha): 0.93
  Relative expression compared to untreated cells: Chemokine (C-X-C motif) ligand 6 (granulocyte chemotactic protein 2): 0.94
  Relative expression compared to untreated cells: Chemokine-like factor super family 3: 0.85
  Relative expression compared to untreated cells: Cyclin D1 (PRAD1: parathyroid adenomatosis 1): 1.34
  Relative expression compared to untreated cells: Cyclin-dependent kinase inhibitor 1A (p21, Cip1): 1.33
  Relative expression compared to untreated cells: Damage-specific DNA binding protein 2, 48 kDa: 1.00
  Relative expression compared to untreated cells: Growth arrest and DNA-damage-inducible, beta: 0.92
  Relative expression compared to untreated cells: Heat shock 27 kDa protein 1: 1.13
  Relative expression compared to untreated cells: Interleukin 8: 1.37
  Relative expression compared to untreated cells: KILLER/DR5: 1.1
  Relative expression compared to untreated cells: Leucine-rich repeats and death domain containing: 1.10
  Relative expression compared to untreated cells: Mdm2, transformed 3T3 cell double minute 2, p53 binding protein (mouse): 0.91
  Relative expression compared to untreated cells: Nuclear factor of kappa light polypeptide gene enhancer in B-cells inhibitor, alpha: 0.96
  Relative expression compared to untreated cells: Ribonucleotide reductase M2 B (TP53 inducible): 1.08
  Relative expression compared to untreated cells: Tenascin C (hexabrachion): 1.37
  Relative expression compared to untreated cells: Thiosulfate sulfurtransferase (rhodanese): 1.13
  Relative expression compared to untreated cells: Tumor necrosis factor receptor superfamily, member 9: 0.65
  Relative expression compared to untreated cells: Tumor necrosis factor, alpha-induced protein 6: 0.73
  Relative expression compared to untreated cells: Tumor protein p53 inducible nuclear protein 1: 1.09
  Relative expression compared to untreated cells: V-myc myelocytomatosis viral oncogene homolog (avian): 0.88
  Relative expression compared to untreated cells: Vascular cell adhesion molecule 1: 1.18
9AA 10 μM
  Relative expression compared to untreated cells: Activating transcription factor 3: 2.99
  Relative expression compared to untreated cells: Amyloid beta (A4) precursor-like protein 2: 1.90
  Relative expression compared to untreated cells: Annexin A1: 2.02
  Relative expression compared to untreated cells: Apoptotic protease activating factor: 1.72
  Relative expression compared to untreated cells: BCL2 binding component 3 (PUMA): 1.79
  Relative expression compared to untreated cells: BTG family member 2: 2.4
  Relative expression compared to untreated cells: CD44 antigen (homing function and Indian blood group system): 0.41
  Relative expression compared to untreated cells: Carboxylesterase 2 (intestine, liver): 3.17
  Relative expression compared to untreated cells: Chemokine (C-C motif) ligand 2: 0.35
  Relative expression compared to untreated cells: Chemokine (C-C motif) ligand 20: 0.35
  Relative expression compared to untreated cells: Chemokine (C-X-C motif) ligand 1 (melanoma growth stimulating activity, alpha): 0.15
  Relative expression compared to untreated cells: Chemokine (C-X-C motif) ligand 6 (granulocyte chemotactic protein 2): 0.22
  Relative expression compared to untreated cells: Chemokine-like factor super family 3: 0.59
  Relative expression compared to untreated cells: Cyclin D1 (PRAD1: parathyroid adenomatosis 1): 0.69
  Relative expression compared to untreated cells: Cyclin-dependent kinase inhibitor 1A (p21, Cip1): 4.62
  Relative expression compared to untreated cells: Damage-specific DNA binding protein 2, 48 kDa: 1.79
  Relative expression compared to untreated cells: Growth arrest and DNA-damage-inducible, beta: 2.66
  Relative expression compared to untreated cells: Heat shock 27 kDa protein 1: 1.71
  Relative expression compared to untreated cells: Interleukin 8: 0.30
  Relative expression compared to untreated cells: KILLER/DR5: 2.4
  Relative expression compared to untreated cells: Leucine-rich repeats and death domain containing: 1.64
  Relative expression compared to untreated cells: Mdm2, transformed 3T3 cell double minute 2, p53 binding protein (mouse): 2.30
  Relative expression compared to untreated cells: Nuclear factor of kappa light polypeptide gene enhancer in B-cells inhibitor, alpha: 0.55
  Relative expression compared to untreated cells: Ribonucleotide reductase M2 B (TP53 inducible): 3.33
  Relative expression compared to untreated cells: Tenascin C (hexabrachion): 0.58
  Relative expression compared to untreated cells: Thiosulfate sulfurtransferase (rhodanese): 2.79
  Relative expression compared to untreated cells: Tumor necrosis factor receptor superfamily, member 9: 0.91
  Relative expression compared to untreated cells: Tumor necrosis factor, alpha-induced protein 6: 0.27
  Relative expression compared to untreated cells: Tumor protein p53 inducible nuclear protein 1: 1.86
  Relative expression compared to untreated cells: V-myc myelocytomatosis viral oncogene homolog (avian): 0.48
  Relative expression compared to untreated cells: Vascular cell adhesion molecule 1: 0.51
